Publication PMC11602115 (Journal of Medicinal Chemistry, 2017)

The chains behind the UniProt entries cited, without tags or fusion partners. Where a name states a change or a piece, a line headed by the entry shows the natural chain unless it says otherwise.
UniProt P43116: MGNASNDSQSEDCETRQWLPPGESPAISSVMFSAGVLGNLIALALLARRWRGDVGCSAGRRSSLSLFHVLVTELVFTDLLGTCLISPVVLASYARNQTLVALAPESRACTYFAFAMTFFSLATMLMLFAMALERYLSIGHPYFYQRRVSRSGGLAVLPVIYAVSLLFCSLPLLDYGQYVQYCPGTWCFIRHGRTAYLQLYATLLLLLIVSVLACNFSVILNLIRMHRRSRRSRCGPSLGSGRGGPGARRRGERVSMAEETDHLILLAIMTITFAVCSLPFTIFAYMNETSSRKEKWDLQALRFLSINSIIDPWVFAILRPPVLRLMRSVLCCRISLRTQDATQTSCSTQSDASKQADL
UniProt P43119: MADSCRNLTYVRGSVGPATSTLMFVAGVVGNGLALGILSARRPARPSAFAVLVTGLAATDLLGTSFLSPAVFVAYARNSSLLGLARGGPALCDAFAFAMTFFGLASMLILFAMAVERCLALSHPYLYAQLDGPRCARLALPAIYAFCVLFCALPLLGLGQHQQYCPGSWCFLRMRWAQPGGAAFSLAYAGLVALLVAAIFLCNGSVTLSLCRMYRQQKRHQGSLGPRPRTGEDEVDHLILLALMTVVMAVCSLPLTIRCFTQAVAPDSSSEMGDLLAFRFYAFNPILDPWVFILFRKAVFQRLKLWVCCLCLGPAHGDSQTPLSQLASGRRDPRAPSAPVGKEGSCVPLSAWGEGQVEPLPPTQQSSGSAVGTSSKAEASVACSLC

Key:
Format in all cases: cell-based
[1] = tested on: primary human pulmonary arterial smooth muscle cells; assay: HTRF cAMP assay in primary human pulmonary arterial smooth muscle cells; settings: PASMC, n = 8, read-out: EC50 [95% CI], primary human PASMC cAMP
Protocol: Additional In Vitro Assays […]
Compounds were also evaluated in HTRF cAMP assays using primary human pulmonary arterial smooth muscle cells (Cell Applications, Inc., #352Kq05a, or ThermoFisher/Gibco, #C0095C) using the same basic assay protocol outlined in the Experimental section. Cells were cultured as recommended by the suppliers, used at low passage and seeded into 384qwell assay plates at a density of 700q900 cell per well

[2] = molecular target: EP2 (Homo sapiens, UniProt P43116); assay: cAMP HTRF agonist assay, EP2
Text: Table Sup2: Data with some comparator compounds in functional assays.
Compound DP1 EP1 EP2 EP3v6 EP4
EC50, µµµµM (% I.A) EC50, µµµµM (% I.A) EC50, µµµµM (% I.A) EC50, µµµµM (% I.A) EC50, µµµµM (% I.A)
n = 3 n = 2 n = 8 n = 6 n = 6
All assays were cAMP HTRF agonist assays (Gs) except for EP3v6 which was a melanophore dispersion
Additional data from the in vivo evaluation of 5c […]

[3] = tested on: human platelet; assay: Inhibition of ADP-induced human platelet aggregation; settings: aggregation induced by 2.5 μM ADP, mean of at least two determinations
Protocol: Such aggregated and activated platelets produce vasoactive substances such as thromboxane and serotonin that may cause harmful vasoconstriction and vascular remodeling.[13] […] This secondary assay was carried out as previously described,[14] with aggregation induced by 2.5 μM ADP in the presence or absence of IP receptor agonists.

[4] = molecular target: IP (Homo sapiens, UniProt P43119); assay: HTRF cAMP assay, recombinant human IP receptor stably expressed in CHO-K1 cells; set-up: expressed in transfected cells; settings: mean of at least three determinations
Protocol: The new compounds were tested for functional agonist activity in a standard (Cisbio) cAMP assay using recombinant IP or DP1 receptors stably expressed in CHO-K1 cells. Clonal cell lines were derived following standard protocols, but receptor expression levels were kept to a minimum to preclude receptor reserve effects.
For development of cAMP accumulation assays, recombinant IP or DP1 receptors were stably expressed in CHO-K1 cells and clonal cell lines derived following standard protocols. Receptor expression levels were minimized to preclude receptor reserve effects. HTRF cAMP assays were performed according to the manufacturer’s instructions (Cisbio, cAMP Dynamic 2 assay kit; no. 62AM4PEJ). IP receptor-expressing cells were harvested, resuspended in assay buffer (PBS containing 1 mM IBMX and 0.2% BSA) at a density of 200 000 cells per mL, and dispensed into 384-well assay plates (PerkinElmer Proxiplate no. 6008280) at 5 μL per well. Test compounds were solubilized and serially diluted in DMSO using 5-fold dilutions to generate a 10-point dose–response curve with a top concentration of 10 μM. The samples were then further diluted in PBS to achieve a 2× stock. […] Plates were then incubated at room temperature for 1 h prior to reading. Time-resolved fluorescence measurements were collected on PerkinElmer Envision or BMG Pherastar microplate readers.

**Q.** O=C(O)COC[C@H]1CC[C@H](COC(=O)N(c2ccccc2)c2ccc(Cl)cc2)CC1 [5c, Sodium 2-(((1r,4r)-4-(((4-Chlorophenyl)(phenyl)carbamoyloxy)methyl)cyclohexyl)methoxy)acetate] was tested. Which EC50 [1] did it give?
**A.** 0.024 µM

**Q.** With CCCCC[C@H](O)/C=C/[C@H]1[C@H](O)CC(=O)[C@@H]1C/C=C\CCCC(=O)O [PGE2] as the compound, how does the EC50 [2] read?
**A.** 0.0055 µM

**Q.** Which IC50 [3] does the source give for O=C(O)COC[C@H]1CC[C@H](COC(=O)N(c2ccccc2)c2cccc(Cl)c2)CC1 [5i, 2-(((1r,4r)-4-(((3-Chlorophenyl)(phenyl)carbamoyloxy)methyl)cyclohexyl)methoxy)acetic Acid] here?
**A.** 0.054 µM

**Q.** What about the EC50 [4] of the same compound?
**A.** 0.019 µM
